{"source": "patent US20260115304A1", "about": "“BIOACTIVE CONJUGATES, PREPARATION METHOD AND USE THEREOF” (priority 2023, published 2026)", "molecules": {"B1": {"name": "3-A (conjugate)", "heavy": "EVQLVQSGAEVKKPGASVKVSCKASGYSFTDYYMHWVRQAPGQGLEWIGRINPYAGAAFYSQNFKDRVTLTVDTSTSTAYLELSSLRSEDTAVYYCAIERGADLEGYAMDYWGQGTLVTVSSASTKGPSVFPLAPSSKSTSGGTAALGCLVKDYFPEPVTVSWNSGALTSGVHTFPAVLQSSGLYSLSSVVTVPSSSLGTQTYICNVNHKPSNTKVDKKV[human IgG1 Fc omitted]", "light": "DIQMTQSPSSLSASVGDRVTITCRASQSVSTSSYNYMHWYQQKPGKPPKLLIKYASNLESGVPSRFSGSGSGTDFTLTISSLQPEDFATYYCQHSWEIPLTFGQGTKVEIKRTVAAPSVFIFPPSDEQLKSGTASVVCLLNNFYPREAKVQWKVDNALQSGNSQESVTEQDSKDSTYSLSSTLTLSKADYEKHKVYACEVTHQGLSSPVTKSFNRGEC"}, "B2": {"name": "3-11 (conjugate)", "heavy": "B1 heavy", "light": "B1 light"}, "B3": {"name": "3-18 (conjugate)", "heavy": "B1 heavy", "light": "B1 light"}, "B4": {"name": "3-12 (conjugate)", "heavy": "B1 heavy", "light": "B1 light"}, "B5": {"name": "3-14 (conjugate)", "heavy": "B1 heavy", "light": "B1 light"}}, "note": "“And” between values parts separate entries of the source, which are not always exact repeats. Identical values can stand only once.", "data": [{"test_system": "not given", "test": "not given", "conditions": "anti-CLL1 ADCs, mouse, 5 mg/kg, 0.5 h post-dosing", "description": "(§1) ADC DAR changes in mouse serum PK samples.\n(§2) Human CLL1 or PTK7, as applicable, ECD was biotinylated and immobilized onto Dynabeads M-280 Streptavidin. ADCs were captured from the plasma samples by incubation with an ECD-bead system for 2 hours at 37° C. The captured ADCs were then washed with HBS-EP buffer (10 mM Hepes [pH 7.4], 150 mM NaCl, 3.4 mM ethylenediaminetetraacetic acid [EDTA], 0.005% Surfactant P20) and digested using IdeS enzyme at 37° C. for 1 h. After extensive washing of the beads with HBS-EP, water, and 10% acetonitrile, the ADC analytes were eluted using 30% acetonitrile with 1% formic acid. The samples were then reduced with 100 mM TCEP for 45 min. Liquid chromatography-tandem mass spectrometry (LC-MS/MS)methods were used for the ADC DAR analysis.", "values": [{"molecule": "B1", "DAR": "2.76 (0.5 h)"}]}, {"test_system": "not given", "test": "not given", "conditions": "anti-CLL1 ADCs, mouse, 5 mg/kg, 2 h post-dosing", "description": "as §1, §2", "values": [{"molecule": "B2", "DAR": "3.24 (2 h)"}, {"molecule": "B3", "DAR": "3.96 (2 h)"}, {"molecule": "B4", "DAR": "2.68 (2 h)"}, {"molecule": "B5", "DAR": "4.04 (2 h)"}]}, {"test_system": "not given", "test": "not given", "conditions": "anti-CLL1 ADCs, mouse, 5 mg/kg, 48 h post-dosing", "description": "as §1, §2", "values": [{"molecule": "B3", "DAR": "2.44 (48 h)"}]}, {"test_system": "not given", "test": "not given", "conditions": "anti-CLL1 ADCs, mouse, 5 mg/kg, 72 h post-dosing", "description": "as §1, §2", "values": [{"molecule": "B1", "DAR": "1.96 (72 h)"}]}, {"test_system": "not given", "test": "not given", "conditions": "anti-CLL1 ADCs, mouse, 5 mg/kg, […] post-dosing", "description": "as §1, §2", "values": [{"molecule": "B2", "DAR": "2.50 (168 h)"}, {"molecule": "B4", "DAR": "2.42 (168 h)"}, {"molecule": "B1", "DAR": "1.22 (168 h)"}, {"molecule": "B5", "DAR": "2.88 (168 h)"}]}, {"test_system": "not given", "test": "not given", "conditions": "mouse PK, anti-CLL1 ADCs, 5 mg/kg", "description": "as §1, §2", "values": [{"molecule": "B2", "DAR changes compared with ADC3-A": "lower DAR changes"}, {"molecule": "B3", "DAR changes compared with ADC3-A": "lower DAR changes"}, {"molecule": "B4", "DAR changes compared with ADC3-A": "lower DAR changes"}, {"molecule": "B5", "DAR changes compared with ADC3-A": "lower DAR changes"}]}, {"test_system": "not listed separately", "test": "ADC hydrophobicity evaluation by HIC chromatography (DAR8 peak retention time)", "assay_type": "physicochemical", "conditions": "HIC retention time of DAR8 peak; later RT = higher hydrophobicity", "from_the_text": "ADC hydrophobicity evaluation: An ADC with a higher hydrophobic property would appear with a later retention time (“RT”) from HIC (hydrophobicity interaction column) chromatography. Results are presented in Tables 2A-2D using the DAR8 peak as a reference.", "units": {"DAR8 RT": "min"}, "values": [{"molecule": "B2", "DAR8 RT": 13.220}, {"molecule": "B3", "DAR8 RT": 12.192}, {"molecule": "B4", "DAR8 RT": 11.126}, {"molecule": "B1", "DAR8 RT": 14.466}, {"molecule": "B5", "DAR8 RT": 12.877}]}, {"test_system": "not given", "test": "not given", "conditions": "anti-CLL1 ADCs, mouse, 5 mg/kg intravenous", "description": "(§3) Female BALB/c nude mice (n=3 per group) were treated with freshly prepared ADCs (5 mg/kg) through intravenous administration. At the designated time points after dosing, mice were anesthetized by isoflurane. […] Blood samples were placed at room temperature for about 30 minutes and processed by centrifugation (4° C., 3000×g, 7 min) to separate plasma. Serum samples were transferred into new 1.5 mL tubes and kept in a −80° C. freezer prior to analysis.\n(§4) Serum payload concentrations. To determine serum payload concentrations, an aliquot of 15 μL sample was added with 150 μL IS (Verapamil, 10 ng/mL) in ACN/MeOH (1:1). The mixture was vortexed for 1 min and centrifuged at 4000 rpm for 10 min at 4° C. An aliquot of 80 μL supernatant was diluted with 80 μL water, and the mixed sample was injected into LC-MS/MS.\n(§5) LC-MS MS method to determine payload bioanalysis. LC-MS/MS analysis was carried out under the following measurement conditions: • Instrument: LC-MS/MS (Triple Quad 6500 plus) • Monitor: MRM • Column: Advanced Materials Technology, HALO AQ-C18 2.7 μm 90 Å, 50*2.1 mm • Column temperature: 40° C. • Mobile phase A: H2O-0.1% FA • Mobile phase B: ACN-0.1% FA • Gradient program for MMAE: 15% B-15% B (0 min-0.4 min), 15% B-30% B (0.4 min-0.8 min), 30% B-30% B (0.8 min-1.8 min), 30% B-90% B (1.8 min-1.9 min), 90% B-90% B (1.9 min-2.4 min), 90% B-15% B (2.4 min-2.5 min), 15% B-15% B (2.5 min-3.0 min) • Injected sample amount: 10 μL (MMAE)\n(§6) Plasma ADC and total Ab (Tab) concentrations. Plasma ADC and Tab concentrations were determined using an ELISA assay in which the capture reagent was CLL1 or PTK7 (as applicable) ECD (extracellular domain). The detection reagent was anti-payload Ab for ADC concentration and anti-human IgG polyclonal Ab for Tab concentration.\n(§7) For ADC concentration, microplates were coated with CLL1 or PTK7, as applicable. ECD at 1 μg/mL, 100 μL per well and incubated overnight at 4° C. The microplates were washed 3 times with 0.05% PBST, then 200 μL 2% BSA solution was added per well. The plates were incubated at 37° C. for 1 h followed by washing 3 times with 0.05% PBST. Then 100 μL (of ADC samples or for standard curves) were added to each well. Plates were incubated at 37° C. for 1h followed by washing 3 times with 0.05% PBST. 100 μL of 1 μg/ml biotin anti-MMAE antibody was added per well. Plates were again incubated at 37° C. for 1 h and then washed 3 times with 0.05% PBST. Then 100 μL of 1:10000 SA-HRP was added per well, incubated at 37° C. for 0.5h, followed by washing 3 times with 0.05% PBST. Lastly, 100 μL TMB was added per well and plates were incubated for 15 mins at room temperature before the addition of 100 μL stop solution per well. Plates were read at OD 450 on an ELISA microplate reader.\n(§8) For Tab concentration of anti-CLL1 antibodies, the foregoing ADC method was used except for the following changes: 100 μL of anti human lgG Fc HRP (1:10000) was added per well.\n(§9) For Tab concentration of anti-PTK1 antibodies, the foregoing ADC method was used except for the following changes: 100 μL of 1 μg/ml anti human lgG Fc HRP (1:10000) was added per well.\n(§10) Female BALB/c nude mice were subcutaneously injected with 5×10^6 NCI-H1650 cells (mixed with Matrigel at a ratio of 1:1) in the right flank. After inoculation, tumor length (a) and width (b) were measured with calipers and tumor volumes were calculated using the formula V=0.5(a×b^2). When tumor volumes reached approximately 200 mm^3 in size, mice were randomized into 4 groups with 6 animals in each of a vehicle, ADC5-A, ADC5-1, and ADC5-2 group on Day 0. Animals were intravenously administrated with vehicle, ADC5-A (3 mg/kg), ADC5-1 (3 mg/kg), or ADC5-2 (3 mg/kg) on treatment Day 1. […] Blood was centrifuged at 5000×g for 10 minutes at 4° C. to obtain serum for PK assays. Animal body weight and tumor volume were measured twice weekly. Tumor growth inhibition (TGI) was calculated using the following formula: […]", "units": {"ADC AUClast": "µg·h/mL", "Tab AUClast": "µg·h/mL"}, "values": [{"molecule": "B2", "ADC AUClast": 8127, "Tab AUClast": 8559}, {"molecule": "B3", "ADC AUClast": 7696, "Tab AUClast": 8242}, {"molecule": "B4", "ADC AUClast": 8358, "Tab AUClast": 7949}, {"molecule": "B1", "ADC AUClast": 4353, "Tab AUClast": 6448}, {"molecule": "B5", "ADC AUClast": 5072, "Tab AUClast": 6481}]}, {"test_system": "not given", "test": "not given", "conditions": "anti-CLL1 ADCs, mouse, 5 mg/kg intravenous; payload MMAE", "description": "as §3, §4, §5, §6, §7, §8, §9, §10", "units": {"Payload AUClast": "µg·h/mL"}, "values": [{"molecule": "B1", "Payload AUClast": 0.00858}]}, {"test_system": "not given", "test": "not given", "conditions": "mouse PK, anti-CLL1 ADCs, 5 mg/kg", "remark": "another data set of the same source", "description": "as §3, §4, §5, §6, §7, §8, §9, §10", "values": [{"molecule": "B2", "payload exposure compared with ADC3-A": "lower payload exposure"}, {"molecule": "B3", "payload exposure compared with ADC3-A": "lower payload exposure"}, {"molecule": "B4", "payload exposure compared with ADC3-A": "lower payload exposure"}, {"molecule": "B5", "payload exposure compared with ADC3-A": "lower payload exposure"}]}, {"test_system": "U937 cells", "test": "ADC direct killing in U937 cancer line (Cell Titer-Glo)", "assay_type": "cell-based, human", "conditions": "U937, 6 days", "description": "(§11) U937 (ATCC, CRL-1593.2). […] U937 was purchased from ATCC. The base medium for U937 is ATCC-formulated RPMI-1640 Medium (ATCC 30-2001). To make the complete growth medium, fetal bovine serum to a final concentration of 10% (Gibco, 10099-141C) was added to the base medium. The cell line was grown in a humidified 5% CO2 atmosphere at 37° C., and was regularly tested for the presence of mycoplasma with MycoAtert™ PLUS Mycoplasma Detection Kit (Lonza, LT07-710).\n(§12) ADC direct killing ADC direct killing was assessed in U937, HL60, and TF1 cancer lines. Cells were seeded (U937 or HL60 (3E3/well) or TF1 (6E3/well)) into 2D 96-well plates (Greiner: 655090), 100 μl/well (including 150 μg/ml Fe blocker), and incubated at 37° C., 5% CO2, for 1 h. Fresh growth medium was added containing varying concentrations of ADCs, 50 μl/well, and incubated at 37° C., 5% CO2, for 6 days. The cell viability was detected by Cell Titer-Glo (Promega, G7573), 70 μl/well. The 2D plates were allowed to incubate at room temperature for 10 minutes to stabilize the luminescent signal. The plates were analyzed with a microplate reader.", "units": {"EC50": "nM"}, "values": [{"molecule": "B2", "EC50": 0.5}, {"molecule": "B3", "EC50": 0.4}, {"molecule": "B4", "EC50": 0.6}, {"molecule": "B5", "EC50": 0.2}]}, {"test_system": "U937 cells", "test": "ADC direct killing in U937 cancer line (Cell Titer-Glo)", "assay_type": "cell-based, human", "conditions": "U937, 6 days; listed as ADC3-A", "description": "as §11, §12", "values": [{"molecule": "B1", "EC50": "1 nM and 0.8 nM and 0.9 nM and 0.7 nM and 0.6 nM"}]}]}
